These results are taken from article PMC9059126, “Structure-Based Design of a Novel Class of Autotaxin Inhibitors Based on Endogenous Allosteric Modulators” (Journal of Medicinal Chemistry, 2022).

The assay has as its target ATX (Rattus norvegicus, UniProt Q64610). Nature of the assay: Choline oxidase-coupled choline-release assay of LPC hydrolysis by ATX. The note with it: 20 nM ATX.

Regarding `C[C@H](CCC(=O)O)[C@H]1CC[C@H]2[C@@H]3[C@@H](O)C[C@@H]4C[C@H](O)CC[C@]4(C)[C@H]3CC[C@]12C` [Compound 9, ursodeoxycholic acid, reference compound], the “Residual Activity (%)” value is listed as 61%.
